# Permeability data for macrocyclic peptides

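Conditions beyond the assay type are not listed; see the original paper. The list need not hold all peptides of the study. Entries at the database's floor value (log10 P of -10) are not listed.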

PAMPA measures passive passage through an artificial lipid membrane.
Permeability is in 10^-6 cm/s, converted from the database's log10 values; higher is more permeable.

* CC(=O)N1CCC[C@@H]1C(=O)N(C)[C@@H](CC(C)C)C(=O)N[C@@H]1C(=O)N[C@H](CC(C)C)C(=O)N[C@@H](CC(C)C)C(=O)N[C@@H](CC(C)C)C(=O)N(C)[C@@H](C)C(=O)N[C@H](CC(C)C)C(=O)N2CCC[C@H]2C(=O)O[C@@H]1C: PAMPA 0.71 × 10^-6 cm/s
* CC(=O)N1CCC[C@H]1C(=O)N(C)[C@H](CC(C)C)C(=O)N[C@@H]1C(=O)N(C)[C@@H](CC(C)C)C(=O)N[C@@H](CC(C)C)C(=O)N[C@H](CC(C)C)C(=O)N[C@@H](C)C(=O)N[C@H](CC(C)C)C(=O)N2CCC[C@H]2C(=O)O[C@@H]1C: PAMPA 0.76 × 10^-6 cm/s
* CC(=O)N1CCC[C@H]1C(=O)N(C)[C@H](CC(C)C)C(=O)N[C@@H]1C(=O)N[C@@H](CC(C)C)C(=O)N(C)[C@@H](CC(C)C)C(=O)N(C)[C@H](CC(C)C)C(=O)N(C)[C@H](C)C(=O)N[C@H](CC(C)C)C(=O)N2CCC[C@@H]2C(=O)O[C@@H]1C: PAMPA 3.3 × 10^-6 cm/s
* CC(=O)N1CCC[C@@H]1C(=O)N(C)[C@@H](CC(C)C)C(=O)N[C@@H]1C(=O)N[C@@H](CC(C)C)C(=O)N[C@@H](CC(C)C)C(=O)N(C)[C@@H](CC(C)C)C(=O)N(C)[C@@H](C)C(=O)N[C@@H](CC(C)C)C(=O)N2CCC[C@H]2C(=O)O[C@@H]1C: PAMPA 0.5 × 10^-6 cm/s
* CC(=O)N1CCC[C@H]1C(=O)N(C)[C@H](CC(C)C)C(=O)N[C@@H]1C(=O)N[C@H](CC(C)C)C(=O)N(C)[C@@H](CC(C)C)C(=O)N(C)[C@@H](CC(C)C)C(=O)N[C@@H](C)C(=O)N[C@@H](CC(C)C)C(=O)N2CCC[C@@H]2C(=O)O[C@@H]1C: PAMPA 5.6 × 10^-6 cm/s
* CC(=O)N1CCC[C@H]1C(=O)N(C)[C@@H](CC(C)C)C(=O)N[C@@H]1C(=O)N[C@H](CC(C)C)C(=O)N(C)[C@@H](CC(C)C)C(=O)N[C@@H](CC(C)C)C(=O)N(C)[C@@H](C)C(=O)N[C@H](CC(C)C)C(=O)N2CCC[C@H]2C(=O)O[C@@H]1C: PAMPA 4.9 × 10^-6 cm/s
* CC(=O)N1CCC[C@H]1C(=O)N(C)[C@@H](CC(C)C)C(=O)N[C@@H]1C(=O)N[C@@H](CC(C)C)C(=O)N(C)[C@H](CC(C)C)C(=O)N(C)[C@@H](CC(C)C)C(=O)N(C)[C@@H](C)C(=O)N[C@H](CC(C)C)C(=O)N2CCC[C@@H]2C(=O)O[C@@H]1C: PAMPA 2.6 × 10^-6 cm/s
* CC(=O)N1CCC[C@H]1C(=O)N(C)[C@H](CC(C)C)C(=O)N[C@@H]1C(=O)N[C@@H](CC(C)C)C(=O)N(C)[C@@H](CC(C)C)C(=O)N(C)[C@H](CC(C)C)C(=O)N(C)[C@H](C)C(=O)N[C@H](CC(C)C)C(=O)N2CCC[C@H]2C(=O)O[C@@H]1C: PAMPA 1.6 × 10^-6 cm/s
* CC(=O)N1CCC[C@H]1C(=O)N(C)[C@@H](CC(C)C)C(=O)N[C@@H]1C(=O)N[C@@H](CC(C)C)C(=O)N[C@@H](CC(C)C)C(=O)N[C@H](CC(C)C)C(=O)N[C@@H](C)C(=O)N[C@@H](CC(C)C)C(=O)N2CCC[C@H]2C(=O)O[C@@H]1C: PAMPA 0.2 × 10^-6 cm/s
* CC(=O)N1CCC[C@H]1C(=O)N(C)[C@H](CC(C)C)C(=O)N[C@@H]1C(=O)N[C@H](CC(C)C)C(=O)N(C)[C@@H](CC(C)C)C(=O)N[C@@H](CC(C)C)C(=O)N(C)[C@@H](C)C(=O)N[C@H](CC(C)C)C(=O)N2CCC[C@H]2C(=O)O[C@@H]1C: PAMPA 6.2 × 10^-6 cm/s
* CC(=O)N1CCC[C@H]1C(=O)N(C)[C@@H](CC(C)C)C(=O)N[C@@H]1C(=O)N(C)[C@H](CC(C)C)C(=O)N(C)[C@H](CC(C)C)C(=O)N(C)[C@H](CC(C)C)C(=O)N(C)[C@H](C)C(=O)N[C@@H](CC(C)C)C(=O)N2CCC[C@H]2C(=O)O[C@@H]1C: PAMPA 6.5 × 10^-6 cm/s
* CC(=O)N1CCC[C@H]1C(=O)N(C)[C@H](CC(C)C)C(=O)N[C@@H]1C(=O)N(C)[C@H](CC(C)C)C(=O)N(C)[C@@H](CC(C)C)C(=O)N[C@@H](CC(C)C)C(=O)N[C@@H](C)C(=O)N[C@H](CC(C)C)C(=O)N2CCC[C@@H]2C(=O)O[C@@H]1C: PAMPA 2.8 × 10^-6 cm/s
* CC(=O)N1CCC[C@H]1C(=O)N[C@@H]1C(=O)N[C@H](CC(C)C)C(=O)N[C@@H](CC(C)C)C(=O)N[C@H](CC(C)C)C(=O)N[C@H](CC(C)C)C(=O)N(C)[C@@H](C)C(=O)N[C@@H](CC(C)C)C(=O)N2CCC[C@@H]2C(=O)O[C@@H]1C: PAMPA 6.6 × 10^-6 cm/s
* CC(=O)N[C@@H]1C(=O)N2CCC[C@H]2C(=O)N(C)[C@H](CC(C)C)C(=O)N(C)[C@H](CC(C)C)C(=O)N[C@@H](CC(C)C)C(=O)N(C)[C@@H](CC(C)C)C(=O)N[C@H](C)C(=O)N[C@@H](CC(C)C)C(=O)N2CCC[C@@H]2C(=O)O[C@@H]1C: PAMPA 4.8 × 10^-6 cm/s
* CC(=O)N1CCC[C@@H]1C(=O)N(C)[C@H](CC(C)C)C(=O)N[C@@H]1C(=O)N[C@@H](CC(C)C)C(=O)N[C@@H](CC(C)C)C(=O)N(C)[C@@H](CC(C)C)C(=O)N[C@@H](C)C(=O)N[C@H](CC(C)C)C(=O)N2CCC[C@H]2C(=O)O[C@@H]1C: PAMPA 0.4 × 10^-6 cm/s
* CC(=O)N1CCC[C@H]1C(=O)N[C@@H]1C(=O)N[C@H](CC(C)C)C(=O)N[C@H](CC(C)C)C(=O)N[C@H](CC(C)C)C(=O)N(C)[C@H](CC(C)C)C(=O)N(C)[C@H](C)C(=O)N[C@@H](CC(C)C)C(=O)N2CCC[C@@H]2C(=O)O[C@@H]1C: PAMPA 1.4 × 10^-6 cm/s
* CC(=O)N1CCC[C@H]1C(=O)N(C)[C@H](CC(C)C)C(=O)N[C@@H]1C(=O)N(C)[C@@H](CC(C)C)C(=O)N[C@@H](CC(C)C)C(=O)N(C)[C@@H](CC(C)C)C(=O)N[C@@H](C)C(=O)N[C@@H](CC(C)C)C(=O)N2CCC[C@H]2C(=O)O[C@@H]1C: PAMPA 6.6 × 10^-6 cm/s

Excerpt, the opening 2 entries:

SMILES	PAMPA (10^-6 cm/s)
CC(=O)N1CCC[C@@H]1C(=O)N(C)[C@@H](CC(C)C)C(=O)N[C@@H]1C(=O)N[C@H](CC(C)C)C(=O)N[C@@H](CC(C)C)C(=O)N[C@@H](CC(C)C)C(=O)N(C)[C@@H](C)C(=O)N[C@H](CC(C)C)C(=O)N2CCC[C@H]2C(=O)O[C@@H]1C	0.71
CC(=O)N1CCC[C@H]1C(=O)N(C)[C@H](CC(C)C)C(=O)N[C@@H]1C(=O)N(C)[C@@H](CC(C)C)C(=O)N[C@@H](CC(C)C)C(=O)N[C@H](CC(C)C)C(=O)N[C@@H](C)C(=O)N[C@H](CC(C)C)C(=O)N2CCC[C@H]2C(=O)O[C@@H]1C	0.76

Data: CycPeptMPDB; original report Kelly et al. 2021, doi:10.1021/jacs.0c06115.